Our source for the IC50 values is patent EP4831173A1, “TYK2 INHIBITOR AND USE THEROF” (dated 2026).

The chains behind the UniProt entries cited, without tags or fusion partners. Residues count along the entry.
UniProt P29597, whole entry: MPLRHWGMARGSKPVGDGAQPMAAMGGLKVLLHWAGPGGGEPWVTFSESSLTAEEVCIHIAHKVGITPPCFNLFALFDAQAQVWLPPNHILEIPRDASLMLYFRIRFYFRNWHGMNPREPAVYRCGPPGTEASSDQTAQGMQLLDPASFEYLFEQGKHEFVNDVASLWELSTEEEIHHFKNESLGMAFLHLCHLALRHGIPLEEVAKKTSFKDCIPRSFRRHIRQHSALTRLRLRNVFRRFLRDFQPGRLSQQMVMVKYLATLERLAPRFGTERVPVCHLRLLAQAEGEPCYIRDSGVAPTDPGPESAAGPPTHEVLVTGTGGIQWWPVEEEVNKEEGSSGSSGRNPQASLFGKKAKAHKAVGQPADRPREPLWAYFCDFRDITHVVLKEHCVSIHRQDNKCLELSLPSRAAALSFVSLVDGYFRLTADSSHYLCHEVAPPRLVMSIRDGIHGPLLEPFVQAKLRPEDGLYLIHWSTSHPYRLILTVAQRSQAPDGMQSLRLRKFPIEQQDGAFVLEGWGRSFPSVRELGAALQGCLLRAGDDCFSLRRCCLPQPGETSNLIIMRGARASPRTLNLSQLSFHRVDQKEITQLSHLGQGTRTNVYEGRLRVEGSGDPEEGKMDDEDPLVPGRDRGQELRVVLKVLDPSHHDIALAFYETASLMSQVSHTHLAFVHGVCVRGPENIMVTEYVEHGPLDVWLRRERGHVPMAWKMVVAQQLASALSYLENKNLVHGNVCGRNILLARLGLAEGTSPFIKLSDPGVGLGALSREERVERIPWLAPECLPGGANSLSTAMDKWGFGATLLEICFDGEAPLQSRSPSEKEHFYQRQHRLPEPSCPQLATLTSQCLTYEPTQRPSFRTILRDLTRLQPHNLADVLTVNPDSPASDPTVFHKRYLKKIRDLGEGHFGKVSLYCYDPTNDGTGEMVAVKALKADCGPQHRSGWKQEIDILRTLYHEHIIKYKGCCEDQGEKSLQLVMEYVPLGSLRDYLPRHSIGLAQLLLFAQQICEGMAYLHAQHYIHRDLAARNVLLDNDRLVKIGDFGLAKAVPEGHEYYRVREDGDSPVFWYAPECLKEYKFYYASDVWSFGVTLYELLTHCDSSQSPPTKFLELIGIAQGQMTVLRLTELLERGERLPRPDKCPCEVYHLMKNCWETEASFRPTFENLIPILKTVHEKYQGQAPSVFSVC
UniProt P29597, 589-875 limits assumed: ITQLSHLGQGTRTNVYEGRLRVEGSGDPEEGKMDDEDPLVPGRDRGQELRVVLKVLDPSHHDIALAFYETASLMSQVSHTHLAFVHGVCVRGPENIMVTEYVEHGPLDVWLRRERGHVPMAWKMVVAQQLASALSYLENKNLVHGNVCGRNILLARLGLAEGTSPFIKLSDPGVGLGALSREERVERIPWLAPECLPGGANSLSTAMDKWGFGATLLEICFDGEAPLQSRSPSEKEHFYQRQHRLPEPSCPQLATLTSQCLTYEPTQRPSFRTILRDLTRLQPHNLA
UniProt P29597, 897-1176 limits assumed: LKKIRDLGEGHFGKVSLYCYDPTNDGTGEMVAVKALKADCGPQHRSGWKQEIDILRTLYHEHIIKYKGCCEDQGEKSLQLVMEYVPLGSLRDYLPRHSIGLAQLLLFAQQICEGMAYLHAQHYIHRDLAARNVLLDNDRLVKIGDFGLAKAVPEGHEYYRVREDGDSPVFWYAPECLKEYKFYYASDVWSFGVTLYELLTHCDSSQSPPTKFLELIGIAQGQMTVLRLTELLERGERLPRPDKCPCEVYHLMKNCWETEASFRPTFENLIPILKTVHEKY
UniProt O60674, 849-1124 limits assumed: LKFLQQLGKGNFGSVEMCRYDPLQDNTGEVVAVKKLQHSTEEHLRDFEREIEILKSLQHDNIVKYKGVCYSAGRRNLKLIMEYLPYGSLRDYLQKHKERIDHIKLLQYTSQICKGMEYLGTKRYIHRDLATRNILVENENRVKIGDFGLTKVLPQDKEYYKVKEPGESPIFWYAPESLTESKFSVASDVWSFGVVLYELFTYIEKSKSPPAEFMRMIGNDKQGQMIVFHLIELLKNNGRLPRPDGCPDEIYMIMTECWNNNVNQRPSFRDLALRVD
UniProt P52333, 822-1111 limits assumed: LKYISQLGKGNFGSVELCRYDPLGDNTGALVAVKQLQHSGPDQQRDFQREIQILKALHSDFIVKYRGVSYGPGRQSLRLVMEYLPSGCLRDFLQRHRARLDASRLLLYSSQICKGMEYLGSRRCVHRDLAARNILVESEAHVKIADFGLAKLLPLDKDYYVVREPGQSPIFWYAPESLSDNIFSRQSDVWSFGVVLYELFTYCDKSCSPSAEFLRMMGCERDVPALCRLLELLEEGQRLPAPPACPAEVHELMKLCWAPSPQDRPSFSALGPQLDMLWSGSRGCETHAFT
UniProt P23458, whole entry partner: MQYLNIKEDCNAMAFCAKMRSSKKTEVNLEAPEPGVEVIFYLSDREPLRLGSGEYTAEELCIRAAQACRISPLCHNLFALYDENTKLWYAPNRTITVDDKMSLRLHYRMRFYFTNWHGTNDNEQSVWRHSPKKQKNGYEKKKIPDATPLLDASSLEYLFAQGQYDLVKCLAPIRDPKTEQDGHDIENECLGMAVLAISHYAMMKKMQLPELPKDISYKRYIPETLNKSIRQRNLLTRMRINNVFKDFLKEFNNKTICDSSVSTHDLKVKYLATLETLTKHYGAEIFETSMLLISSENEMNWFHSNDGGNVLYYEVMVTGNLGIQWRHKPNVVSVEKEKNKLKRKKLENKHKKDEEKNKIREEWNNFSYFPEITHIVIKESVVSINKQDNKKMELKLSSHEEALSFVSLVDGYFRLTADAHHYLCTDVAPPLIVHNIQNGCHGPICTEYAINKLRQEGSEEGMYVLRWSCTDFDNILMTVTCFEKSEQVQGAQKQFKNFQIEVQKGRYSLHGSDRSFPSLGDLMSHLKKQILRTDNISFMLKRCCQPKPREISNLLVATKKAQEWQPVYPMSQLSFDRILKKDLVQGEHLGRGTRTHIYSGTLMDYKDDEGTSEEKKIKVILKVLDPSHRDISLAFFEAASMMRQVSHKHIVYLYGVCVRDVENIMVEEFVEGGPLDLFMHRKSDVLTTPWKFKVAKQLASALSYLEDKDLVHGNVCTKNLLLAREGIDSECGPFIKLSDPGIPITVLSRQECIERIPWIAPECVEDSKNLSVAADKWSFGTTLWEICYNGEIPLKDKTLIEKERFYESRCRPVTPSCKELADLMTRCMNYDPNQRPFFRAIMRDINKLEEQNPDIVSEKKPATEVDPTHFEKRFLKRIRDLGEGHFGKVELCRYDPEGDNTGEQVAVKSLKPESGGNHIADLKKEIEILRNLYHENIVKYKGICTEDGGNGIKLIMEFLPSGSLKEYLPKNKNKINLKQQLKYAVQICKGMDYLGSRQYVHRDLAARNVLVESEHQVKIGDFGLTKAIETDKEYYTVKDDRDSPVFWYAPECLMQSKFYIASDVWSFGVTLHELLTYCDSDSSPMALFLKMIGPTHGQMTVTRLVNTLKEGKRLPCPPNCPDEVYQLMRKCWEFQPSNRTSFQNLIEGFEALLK
UniProt P23458, 875-1153 limits assumed: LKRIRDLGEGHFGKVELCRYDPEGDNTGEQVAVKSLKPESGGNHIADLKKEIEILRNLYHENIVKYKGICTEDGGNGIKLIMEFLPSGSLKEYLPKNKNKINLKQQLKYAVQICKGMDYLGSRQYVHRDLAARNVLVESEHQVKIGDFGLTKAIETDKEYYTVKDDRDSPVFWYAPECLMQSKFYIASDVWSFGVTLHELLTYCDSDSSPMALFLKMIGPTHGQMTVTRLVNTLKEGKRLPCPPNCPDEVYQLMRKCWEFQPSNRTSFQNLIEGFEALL

Where only a bound is given, the exact number is not on record here.

The first test has as its target TYK2 pseudokinase domain (Homo sapiens, UniProt P29597). As to the kind of experiment: TYK2 JH2 pseudokinase domain binding affinity, fluorescence polarization (BPS Bioscience inhibitor screening kit). The following applies: read-out: TYK2 JH2 IC50; polarized fluorescence, 25°C, 1 hour. In general terms: In fluorescence polarisation assays a small probe gives low polarisation when free and higher when bound to something large.
With `CC(=O)Nc1cc2c(-c3ccc(=O)n(C4(C)CCOC4)n3)cn(C)c2cn1` (stereo not drawn), the IC50 is 32 nM.
Still for that read-out and setting: as for `CC(=O)Nc1cc2c(-c3cc(OCC(C)(F)F)c(=O)n([C@@H](C)C(F)(F)F)n3)cn(C)c2cn1`, the figure is 29 nM; as for `CC(=O)Nc1cc2c(-c3cc(OCC(F)F)c(=O)n([C@H](C)C(F)(F)F)n3)cn(C3CC3)c2cn1`, 358 nM.
Same read-out and setting: then `CC(=O)Nc1cc2c(-c3cc(OCC(C)(C)F)c(=O)n([C@@H](C)C(F)(F)F)n3)cn(C)c2cn1`, with 45 nM.
On the same count and under the same terms, then `CCn1cc(-c2cc(OCC(F)(F)F)c(=O)n([C@@H](C)C(F)(F)F)n2)c2cc(NC(C)=O)ncc21`, with 50 nM.
As to `CCn1cc(-c2cc(OCC(C)(C)F)c(=O)n([C@@H](C)C(F)(F)F)n2)c2cc(NC(C)=O)ncc21`, the IC50 worked out at 57 nM.
In the case of `CC(=O)Nc1cc2c(-c3cc(OCC(C)C)c(=O)n(C(C)C)n3)cn(C)c2cn1`, the IC50 turned out to be 19 nM.

The target of another test is JAK2 JH1 (Homo sapiens, UniProt O60674). Kind of test: JAK kinase domain activity, ADP-Glo kinase assay, JAK2. The following applies: read-out: JAK2 JH1 IC50, substrate IGF1R peptide, top concentration 10000 nM. How it is done: (§1) Experimental Example 2: JAK Kinase Domain Activity Analysis
(§2) Kinase domain activity of the JAK family was analyzed using the ADP-Glo kinase assay kit (Promega). The evaluation of the compound was performed according to the manufacturer's protocol, and the method thereof is as follows:
(§3) A 10 mM test compound was diluted to 0.5 mM using DMSO in a 96-well plate, and then 5-fold serial dilutions were performed in DMSO. The diluted compound was diluted to 1/10 with 1x reaction buffer (composition) to prepare a 5x compound solution. 5 uL of the 5x compound solution was mixed with a substrate prepared in the reaction buffer (40 mM Tris, 20 mM MgCl2 and 0.1 mg/ml BSA, 0.05 mM DTT, pH 7.5), and an ATP mixture (10 uL). Next, an enzyme reaction was initiated by adding the JAK family enzyme (10 uL) prepared in the reaction buffer. A short rotation was performed to settle all the solution to the bottom of the plate. The final concentrations of the test compounds in the reaction mixture were 10000, 2000, 400, 80, 16, and 3.2 nM. The concentrations of the control compounds (Brepocitinib or Tofacitinib) were 10 times lower. The enzyme reaction was performed at 25°C for 1 hour. 25 uL of ADP-Glo reagent was added and the reaction was performed at 25 °C for 1 hour. The reaction mixed 50 uL of kinase detection reagent and was stopped, and a luminescence signal was measured using Synergy neo (BioTek Instruments, Inc.). […]
(In ADP-Glo the light output rises with the ADP produced.)
Take `CC(=O)Nc1cc2c(-c3ccc(=O)n(C4(C)CCOC4)n3)cn(C)c2cn1` (stereo not drawn): the IC50 was above 10000 nM.
Regarding `CC(=O)Nc1cc2c(-c3cc(OCC(C)(F)F)c(=O)n([C@@H](C)C(F)(F)F)n3)cn(C)c2cn1`, the IC50 was 1710 nM.
Still for that read-out and setting: as for `CC(=O)Nc1cc2c(-c3cc(OCC(F)F)c(=O)n([C@H](C)C(F)(F)F)n3)cn(C3CC3)c2cn1`, the figure is above 10000 nM.
On the same count and under the same terms, then `CC(=O)Nc1cc2c(-c3cc(OCC(C)(C)F)c(=O)n([C@@H](C)C(F)(F)F)n3)cn(C)c2cn1`, with 1110 nM; and `CCn1cc(-c2cc(OCC(F)(F)F)c(=O)n([C@@H](C)C(F)(F)F)n2)c2cc(NC(C)=O)ncc21`, with above 10000 nM.
The same measure, in the same setting: as for `CCn1cc(-c2cc(OCC(C)(C)F)c(=O)n([C@@H](C)C(F)(F)F)n2)c2cc(NC(C)=O)ncc21`, the figure is 6140 nM.
Take `CC(=O)Nc1cc2c(-c3cc(OCC(C)C)c(=O)n(C(C)C)n3)cn(C)c2cn1`: the IC50 turned out to be 597 nM.

A further test addresses TYK2 JH1 (Homo sapiens, UniProt P29597). Kind of test: JAK kinase domain activity, ADP-Glo kinase assay, TYK2. The following applies: read-out: TYK2 JH1 IC50, substrate IRS1 (Y608) peptide, top concentration 10000 nM. How it is done:
as §1, §2, §3
`CC(=O)Nc1cc2c(-c3ccc(=O)n(C4(C)CCOC4)n3)cn(C)c2cn1` (stereo not drawn): the IC50 is above 10000 nM.
The same measure, in the same setting: then `CC(=O)Nc1cc2c(-c3cc(OCC(C)(F)F)c(=O)n([C@@H](C)C(F)(F)F)n3)cn(C)c2cn1`, with above 10000 nM; and `CC(=O)Nc1cc2c(-c3cc(OCC(F)F)c(=O)n([C@H](C)C(F)(F)F)n3)cn(C3CC3)c2cn1`, with above 10000 nM.
The same measure, in the same setting: as for `CC(=O)Nc1cc2c(-c3cc(OCC(C)(C)F)c(=O)n([C@@H](C)C(F)(F)F)n3)cn(C)c2cn1`, the figure is above 10000 nM.
Same read-out and setting: as for `CCn1cc(-c2cc(OCC(F)(F)F)c(=O)n([C@@H](C)C(F)(F)F)n2)c2cc(NC(C)=O)ncc21`, the figure is above 10000 nM.
With `CCn1cc(-c2cc(OCC(C)(C)F)c(=O)n([C@@H](C)C(F)(F)F)n2)c2cc(NC(C)=O)ncc21`, the IC50 is above 10000 nM.
For `CC(=O)Nc1cc2c(-c3cc(OCC(C)C)c(=O)n(C(C)C)n3)cn(C)c2cn1`, the IC50 was 4060 nM.

A further test deals with JAK3 JH1 (Homo sapiens, UniProt P52333). Kind of test: JAK kinase domain activity, ADP-Glo kinase assay, JAK3. The following applies: read-out: JAK3 JH1 IC50, substrate Poly (4:1 Glu-Tyr) peptide, top concentration 10000 nM. How it is done: as §1, §2, §3
Take `CC(=O)Nc1cc2c(-c3ccc(=O)n(C4(C)CCOC4)n3)cn(C)c2cn1` (stereo not drawn): the IC50 was above 10000 nM.
Consider `CC(=O)Nc1cc2c(-c3cc(OCC(C)(F)F)c(=O)n([C@@H](C)C(F)(F)F)n3)cn(C)c2cn1`, for which the IC50 was above 10000 nM.
On the same count and under the same terms, then `CC(=O)Nc1cc2c(-c3cc(OCC(F)F)c(=O)n([C@H](C)C(F)(F)F)n3)cn(C3CC3)c2cn1`, with above 10000 nM; and `CC(=O)Nc1cc2c(-c3cc(OCC(C)(C)F)c(=O)n([C@@H](C)C(F)(F)F)n3)cn(C)c2cn1`, with above 10000 nM.
For the compound `CCn1cc(-c2cc(OCC(F)(F)F)c(=O)n([C@@H](C)C(F)(F)F)n2)c2cc(NC(C)=O)ncc21`, the IC50 is above 10000 nM.
Turning to `CCn1cc(-c2cc(OCC(C)(C)F)c(=O)n([C@@H](C)C(F)(F)F)n2)c2cc(NC(C)=O)ncc21`, the IC50 was above 10000 nM.
Same read-out and setting: then `CC(=O)Nc1cc2c(-c3cc(OCC(C)C)c(=O)n(C(C)C)n3)cn(C)c2cn1`, with above 10000 nM.

Another test has as its target JAK1 JH1 (Homo sapiens, UniProt P23458). Kind of test: JAK kinase domain activity, ADP-Glo kinase assay, JAK1. The conditions noted are these: read-out: JAK1 JH1 IC50, substrate IRS1 (Y608) peptide, top concentration 10000 nM. How it is done: as §1, §2, §3
Turning to `CC(=O)Nc1cc2c(-c3ccc(=O)n(C4(C)CCOC4)n3)cn(C)c2cn1` (stereo not drawn), the IC50 was above 10000 nM.
Still for that read-out and setting: as for `CC(=O)Nc1cc2c(-c3cc(OCC(C)(F)F)c(=O)n([C@@H](C)C(F)(F)F)n3)cn(C)c2cn1`, the figure is 4100 nM; as for `CC(=O)Nc1cc2c(-c3cc(OCC(F)F)c(=O)n([C@H](C)C(F)(F)F)n3)cn(C3CC3)c2cn1`, above 10000 nM; as for `CC(=O)Nc1cc2c(-c3cc(OCC(C)(C)F)c(=O)n([C@@H](C)C(F)(F)F)n3)cn(C)c2cn1`, 3110 nM.
On to `CCn1cc(-c2cc(OCC(F)(F)F)c(=O)n([C@@H](C)C(F)(F)F)n2)c2cc(NC(C)=O)ncc21`, for which the IC50 was above 10000 nM.
On the same count and under the same terms, as for `CCn1cc(-c2cc(OCC(C)(C)F)c(=O)n([C@@H](C)C(F)(F)F)n2)c2cc(NC(C)=O)ncc21`, the figure is above 10000 nM; as for `CC(=O)Nc1cc2c(-c3cc(OCC(C)C)c(=O)n(C(C)C)n3)cn(C)c2cn1`, 1650 nM.

The target in the next test is TYK2/JAK1 (Homo sapiens, UniProt P29597). As to the kind of experiment: TYK2/JAK1 cell activity by IFNα2B stimulation, SEAP reporter in HEK-blue IFNα/β cells. The conditions noted are these: HEK-blue IFNα/β cell line, human IFNα2B 1 U/mL, 24 hours, SEAP absorbance at 630 nm.
`CC(=O)Nc1cc2c(-c3ccc(=O)n(C4(C)CCOC4)n3)cn(C)c2cn1` (stereo not drawn): the IC50 was below 50 nM.
Still for that read-out and setting: then `CC(=O)Nc1cc2c(-c3cc(OCC(C)(F)F)c(=O)n([C@@H](C)C(F)(F)F)n3)cn(C)c2cn1`, with below 50 nM; and `CC(=O)Nc1cc2c(-c3cc(OCC(F)F)c(=O)n([C@H](C)C(F)(F)F)n3)cn(C3CC3)c2cn1`, with above 500 nM; and `CC(=O)Nc1cc2c(-c3cc(OCC(C)(C)F)c(=O)n([C@@H](C)C(F)(F)F)n3)cn(C)c2cn1`, with below 50 nM.
As to `CCn1cc(-c2cc(OCC(F)(F)F)c(=O)n([C@@H](C)C(F)(F)F)n2)c2cc(NC(C)=O)ncc21`, the IC50 is below 50 nM.
The same measure, in the same setting: then `CCn1cc(-c2cc(OCC(C)(C)F)c(=O)n([C@@H](C)C(F)(F)F)n2)c2cc(NC(C)=O)ncc21`, with below 50 nM.
On the same count and under the same terms, then `CC(=O)Nc1cc2c(-c3cc(OCC(C)C)c(=O)n(C(C)C)n3)cn(C)c2cn1`, with 50 to 500 nM.
